# From patent US20140328940A1, “MODULATION OF AXON DEGENERATION” (Genentech, Inc., priority 2009, published 2014)
# “Also recorded” adds a separate entry of the source.
# What was measured:
# [1] = test system: DRG neurons (axon vs. cell body compartment); experiment: Campenot chamber local axon degeneration (anti-NGF in axon compartment); type: cell-based, mouse
# Description: Teflon dividers (Tyler Research) were cleaned by washing in water and wiping them clean of any residual grease. Dividers were then soaked in Nochromix (Godax Laboratories)/sulfuric acid overnight, rinsed five times in distilled and autoclaved water (SQ water), boiled for 30 minutes, and then air-dried before use
# Mouse laminin (5 μg/ml in sterile filtered water; Invitrogen) was added to PDL coated 35 mm dishes (BD Biosciences) and they were incubated for 1 hour at 37° C., followed by two rinses in SQ water. The dishes were vacuum-dried and then air-dried in a laminar flow hood for 15 minutes. Prepared dishes were then scored with a pin rake (Tyler Research). […] High vacuum grease (VWR) was added to each Teflon divider under a dissection scope. The laminin coated PDL dishes were inverted and dropped onto the Teflon divider, with additional pressure added by use of a toothpick in the non-track-containing regions. Dishes were incubated for 1 hour at 37° C. Five hundred microliters of NBM+MC (50 ng/ml NGF) solution was added to each of the side compartments, and a grease barrier was added in front of the center cell slot.
# Free E13.5 spinal cords were dissected from mouse embryos and placed into NBM+MC (25 ng/ml NGF) solution. DRGs were detached from the spinal cord with a tungsten needle. An NBM+MC-lubricated P200 pipette was used to move DRGs into a 1.5 ml tube. DRGs were pelleted with a tabletop centrifuge for 30 seconds. The supernate was discarded and 0.05% Trypsin/EDTA (cold) was added. The pellet was resolubilized with a pipette and incubated at 37° C. for 15 minutes with constant agitation (650 RPM). The sample was again centrifuged and the supernate discarded. […]
# After 28 hours of anti-NGF antibody treatment, 8% PFA/30% sucrose solution (see above) was added directly to the culture medium at a 1:1 dilution and incubated for 30 minutes. […] The neurons were visualized by use of a fluorescence microscope. […]
# [2] = test system: cerebellar granule neurons (CGNs); experiment: serum deprivation/KCl reduction degeneration of cerebellar granule neurons; type: cell-based, mouse
smiles,measurement,setting,value
O=C1NC(=O)C(c2ccccc2[N+](=O)[O-])=C1Nc1ccc(O)c(Cl)c1 [SB415286],Axon Compartment (protection of NGF-deprived axons),[1],failed to prevent degeneration; also recorded: No (5)
same,Cell Body Compartment (protection of NGF-deprived axons),[1],did not degenerate; also recorded: protected from local degeneration; also recorded: Yes (5)
same,formation of varicosities in locally NGF-deprived axons,[1],"large number of axons with varicosities, as well as fragmented axons"
same,protection of cerebellar granule neurons from serum deprivation/KCl reduction,[2],protect
